Drawing on PubChem BioAssay AID1423 (NMMLSC, 2008), this text covers response (percent of control binding) for 53 compounds.

Chains of the proteins cited; added tags and fusions are not shown.
UniProt P09471, whole entry, looked up: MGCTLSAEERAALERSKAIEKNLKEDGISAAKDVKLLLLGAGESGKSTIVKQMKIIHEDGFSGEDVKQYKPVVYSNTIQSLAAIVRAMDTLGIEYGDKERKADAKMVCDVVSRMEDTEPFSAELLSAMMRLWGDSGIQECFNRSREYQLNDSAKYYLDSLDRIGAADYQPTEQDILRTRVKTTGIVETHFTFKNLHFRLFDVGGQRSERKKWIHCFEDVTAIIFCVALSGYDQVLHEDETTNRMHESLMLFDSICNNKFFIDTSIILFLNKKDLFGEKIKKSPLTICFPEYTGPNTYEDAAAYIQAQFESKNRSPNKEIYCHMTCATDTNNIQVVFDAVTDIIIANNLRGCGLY

Several values for one entry are separate records, joined by “and”; a condition that tells them apart may be missing. Equal values may be shown once. The entries are a selection whose mix differs from that of the whole data set. Activity calls are given as the source filed them. Cut-off read from the data, not from the text of the source: active = response below about 60% or above about 140%; inactive = in between.

The experiment addresses Guanine nucleotide-binding protein G(o) subunit alpha (Homo sapiens) (UniProt P09471). The experiment in a line: compounds changing RGS8 association with Galphao – biochemical, multiplexed bead flow cytometry, primary screen (AID 1423).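 Note: Galphao activated as the GDP aluminium fluoride complex binding bead-coupled RGS8.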 To be noted: at 10 µM, actives lie on both sides. (In general: A flow cytometer gives signals particle by particle.)
Regarding `CC(C)c1ccc(OP(=O)(Nc2ccccn2)Oc2ccccc2F)cc1` (stereo not drawn), the response (percent of control binding) is inactive: 83.5%. Turning to `CCN(CC)C(=S)SC(NC=O)C(Cl)(Cl)Cl` (stereo not drawn), the response (percent of control binding) is inactive: 102%.

On to `CC(C)NC(=O)NP(=O)(Oc1ccccc1)Oc1ccccc1`, for which the response (percent of control binding) was inactive: 96.2%.

`O=[N+]([O-])c1cc([N+](=O)[O-])c(-c2ccn[nH]2)s1`: the response (percent of control binding) is inactive: 99.2%. In the case of `O=[As](O)(c1ccc(O)cc1)c1ccccc1O`, the response (percent of control binding) is inactive: 99.8%.

With `C[As](=O)(O)c1cccc(C(=O)O)c1`, the response (percent of control binding) is inactive: 91%. With `Cc1ccc(OP(=O)(Nc2ccc([N+](=O)[O-])cn2)Oc2ccc(C)cc2)cc1`, the response (percent of control binding) was inactive: 104%.

Take `Cc1ccc2nc3c(c(C)c2c1)CC(C(Cl)Cl)S3` (stereo not drawn): the response (percent of control binding) was inactive: 106%.

Consider `Nc1cccc2ccc([As](=O)(O)O)cc12`, for which the response (percent of control binding) is inactive: 97.2%. For `CCN(N=Nc1nonc1N)c1nonc1N`, the response (percent of control binding) is inactive: 99%. As for `O=P(Nc1nc2ccc(Cl)cc2s1)(c1ccccc1)c1ccccc1`, the response (percent of control binding) is inactive: 97.6%. For `O=C(O)c1ccccc1[As](=O)(O)O`, the response (percent of control binding) was inactive: 100%. For the compound `CC(=O)Nc1ccc([As](=O)(O)O)cc1`, the response (percent of control binding) is inactive: 97.3%. To `CCOP(=O)(Nc1ccccc1)OCC` belongs inactive: 104% and inactive: 103%; to `Cc1cc(SC(NC(=O)c2ccc(F)cc2)C(Cl)(Cl)Cl)ncn1` (stereo not drawn), inactive: 99.3%; to `Cc1ccc(NP(=O)(Oc2ccccc2F)Oc2ccccc2F)nc1`, inactive: 102%. Regarding `Oc1ccccc1CNc1ccccn1`, the response (percent of control binding) was inactive: 103%. For `Cc1c2non([O-])c-2c(C)[n+](=O)[n+]1[O-]`, the response (percent of control binding) is inactive: 87.6%.

For the compound `O=C(NC(Sc1ccncn1)C(Cl)(Cl)Cl)c1ccccc1` (stereo not drawn), the response (percent of control binding) is inactive: 93.4%. Consider `CC(C)CC(=O)NC(Sc1ccc(Cl)cc1)C(Cl)(Cl)Cl` (stereo not drawn), for which the response (percent of control binding) was inactive: 97.5%. Take `Nc1cc(N)c2nonc2c1[N+](=O)[O-]`: the response (percent of control binding) is inactive: 102%.

For `Cc1ccc(N/C(=N/P(=O)(N2CCOCC2)N2CCOCC2)N2CCOCC2)cc1`, the response (percent of control binding) was inactive: 105%.

On to `NC(=O)c1cc([N+](=O)[O-])cc([N+](=O)[O-])c1N`, for which the response (percent of control binding) is inactive: 101%. Take `Clc1ccc(Cl)c(NC2=NCC(CBr)S2)c1` (stereo not drawn): the response (percent of control binding) was inactive: 104%. On to `CN1CCCC(OC(=O)C(c2ccccc2)c2ccccc2)C1` (stereo not drawn), for which the response (percent of control binding) is inactive: 102%.

Regarding `COc1ccccc1OP(=O)(Nc1ccc(C)cn1)Oc1ccccc1OC`, the response (percent of control binding) is inactive: 103%.

With `Cc1ccc(OP(=O)(Nc2nccs2)Oc2ccc(C)cc2)cc1`, the response (percent of control binding) was inactive: 101%.

For `CCN(/C(=N/P(=O)(N1CCOCC1)N1CCOCC1)N1CCOCC1)c1ccc(OC)cc1`, the response (percent of control binding) was inactive: 102%. As for `Nc1ccc([As](=O)(O)c2ccc(N)cc2)cc1`, the response (percent of control binding) was inactive: 101%. In the case of `C[N+]1=C2C=CC=CC=C2SC12C([N+](=O)[O-])=CC([N+](=O)[O-])=C[C-]2[N+](=O)[O-]` (stereo not drawn), the response (percent of control binding) was inactive: 86%. Take `CC1CCN(C(=O)Oc2c(Cl)cc(Cl)c3cccnc23)CC1`: the response (percent of control binding) is inactive: 101%. `CC(C)=N/N=C(\N)N[N+](=O)[O-]`: the response (percent of control binding) was inactive: 97.3%.

In the case of `CN(C)C(=O)OCCc1n(C)cc[n+]1C`, the response (percent of control binding) is inactive: 103%. For `COc1ccc(C2=NCC(CBr)S2)cc1` (stereo not drawn), the response (percent of control binding) is inactive: 106%. Take `Cc1ccc(NP(=O)(Oc2ccccc2)Oc2ccccc2)nc1`: the response (percent of control binding) was inactive: 104%.

On to `CCc1nc2c(n1)c1c(non1O)c1c2no[n+]1[O-]`, for which the response (percent of control binding) was inactive: 104%.

Consider `O=[N+]([O-])c1cc([N+](=O)[O-])c(CCNc2ccccc2)c([N+](=O)[O-])c1`, for which the response (percent of control binding) is inactive: 100%. With `O=[N+]([O-])c1cccc2n[nH]nc12`, the response (percent of control binding) is inactive: 100%. For `CC(=O)N1C2C3N(C(C)=O)C1C1N(C(C)=O)C(C(N1C(C)=O)N3C(C)=O)N2C(C)=O`, the response (percent of control binding) was inactive: 102%. Regarding `O=[N+]([O-])c1ncn(CCn2ncnc2[N+](=O)[O-])n1`, the response (percent of control binding) is inactive: 102%. With `CC(C)(C)C(=O)NC(Sc1ccncn1)C(Cl)(Cl)Cl` (stereo not drawn) the figure was inactive: 99.2%; with `O=C(O)CNc1ccc([As](=O)(O)O)cc1`, inactive: 115%. `O=[N+]([O-])c1cccc(NC2=NCC(CBr)S2)c1` (stereo not drawn): the response (percent of control binding) was inactive: 101%.

For the compound `O=C(Nc1cc([As](=O)(O)O)ccc1O)c1ccccc1`, the response (percent of control binding) is inactive: 105%. In the case of `O=[As](O)(c1ccccc1)c1ccc(O)cc1`, the response (percent of control binding) was inactive: 89.8%. Take `O=[N+]([O-])c1ncn(CCn2cnc([N+](=O)[O-])n2)n1`: the response (percent of control binding) is inactive: 98.1%.

Turning to `CC(=O)NC(SC(=S)N(C)C)C(Cl)(Cl)Cl` (stereo not drawn), the response (percent of control binding) was inactive: 103%. For the compound `O=C(OC1CN2CCC1CC2)c1cccc(Cl)c1` (stereo not drawn), the response (percent of control binding) was inactive: 100%. On to `Nc1ccc([As](=O)(O)c2ccc([N+](=O)[O-])cc2)cc1`, for which the response (percent of control binding) is inactive: 101%. Regarding `C(Cc1nn[nH]n1)Cc1nn[nH]n1`, the response (percent of control binding) is inactive: 103%. As for `O=P(Nc1ccccn1)(c1ccc(Br)cc1)c1ccc(Br)cc1`, the response (percent of control binding) is inactive: 93.9%. `O=P(Nc1nc2ccccc2s1)(c1ccccc1)c1ccccc1`: the response (percent of control binding) was inactive: 99.8%. As to `C[C@H]1OP(=O)(Oc2ccccc2)[C@H](O)[C@H](O)[C@H]1N=[N+]=[N-]` (stereo partly drawn), the response (percent of control binding) is inactive: 97.4%.
